Values quoted from earlier work as cited in patent publication US11548845B2, “Methods of isolating phenols from phenol-containing media” (WISCONSIN ALUMNI RESEARCH FOUNDATION, priority 2019, dated 2023).

Key:
[1] = surfactants of Table 2; cited from earlier work
[2] = values from literature; cited from earlier work

Row | Substance | HLB value [1] | Log P [2]
1 | sucrose stearate | 20 | –
2 | proanthocyanidin | – | 10
